Sequences of proteins named here, by UniProt entry; tags and fusion partners are left off. Residues count along the entry.
UniProt P34969, 1-432 limits assumed: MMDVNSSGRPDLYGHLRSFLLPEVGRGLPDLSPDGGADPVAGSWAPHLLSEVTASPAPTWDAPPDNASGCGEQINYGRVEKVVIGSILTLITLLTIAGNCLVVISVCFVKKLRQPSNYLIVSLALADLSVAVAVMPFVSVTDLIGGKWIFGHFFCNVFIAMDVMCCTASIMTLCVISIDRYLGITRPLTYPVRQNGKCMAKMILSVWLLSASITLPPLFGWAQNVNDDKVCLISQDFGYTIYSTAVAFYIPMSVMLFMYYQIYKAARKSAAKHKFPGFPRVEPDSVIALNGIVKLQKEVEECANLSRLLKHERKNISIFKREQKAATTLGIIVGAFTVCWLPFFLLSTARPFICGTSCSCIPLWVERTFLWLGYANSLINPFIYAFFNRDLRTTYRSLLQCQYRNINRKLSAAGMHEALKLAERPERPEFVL

In paper PMC5842505, “Allosteric Inhibition of Serotonin 5-HT7 Receptors by Zinc Ions” (Molecular Neurobiology, 2017):

Assays:
Design in all cases: The full-length human 5-HT7b receptor complementary DNA (cDNA)
human 5-HT7 receptor [1] = target: T1, human 5-HT7 receptor (Homo sapiens, UniProt P34969); details: reported in earlier publications; cited from earlier work
human 5-HT7 receptor [2] = target: T1, human 5-HT7 receptor; experiment: Dissociation rate kinetic assay; assay type: binding; details: Zn2+ 0 μM; 37 °C; dissociation induced by 10 μM 5-HT
human 5-HT7 receptor [3] = target: T1, human 5-HT7 receptor; experiment: Saturation radioligand binding in the absence and presence of Zn2+
Procedure: HEK293 cells stably expressing the human 5-HT7b receptor were grown in Dulbecco’s Modified Eagle’s Medium (DMEM) (Lonza, Basel, Switzerland) supplemented with 10% dialyzed fetal bovine serum (FBS) (Lonza) and 500 μg/ml G418 sulfate (Sigma-Aldrich) at 37 °C in a humidified atmosphere with 5% CO2. For the membrane preparations, the cells were sub-cultured in 150-cm^2 flasks, grown to 90% confluence, washed twice with phosphate-buffered saline (PBS) pre-warmed to 37 °C, and pelleted by centrifugation (200×g for 5 min) in PBS containing 0.1 mM ethylenediaminetetraacetic acid (EDTA) and 1 mM dithiothreitol (DTT). Prior to the membrane preparation, the pellets were frozen at −80 °C. For the functional experiments, the cells were sub-cultured in 75-cm^2 flasks, grown to 90% confluence, washed twice with PBS pre-warmed to 37 °C, and pelleted by centrifugation (180×g) in PBS containing 0.5 mM EDTA. The supernatant was aspirated, and the cell pellet was resuspended in stimulation buffer (1× HBSS, 5 mM HEPES, 0.5 mM IBMX, 0.1% BSA).
Cell pellets were thawed and homogenized in 10 volumes of 50 mM Tris–HCl buffer (pH 7.7) containing 0.1 mM EDTA, using an Ultra Turrax tissue homogenizer. The pellets were centrifuged twice at 35,000×g for 20 min at 4 °C, with 15-min incubation at 37 °C between centrifugations. The pellets were then resuspended in the incubation buffer as described below for the radioligand binding assays. The membrane protein concentrations were determined using the Pierce™ Coomassie (Bradford) Protein Assay Kit (Thermo Fisher Scientific, Waltham, USA), with bovine serum albumin (BSA) as the standard.
Data from the saturation (K D), competition binding (K i), and kinetic experiments (koff/offobs) were fitted to a one- or two-site model, and the models were compared using an F test (extra sum-of-squares test).

[^3H]mesulergine
Kd (human 5-HT7 receptor [1]): 6.2 nM
Dissociation rate koff (human 5-HT7 receptor [2]): 0.000983 ± 0.000583 s⁻¹
Bmax (human 5-HT7 receptor [3]; Zn2+ 0 μM): 91.2 ± 10.0 pM/mg
Kd (human 5-HT7 receptor [3]; Zn2+ 0 μM, HEK293 membranes, 37 °C, 60 min): 9.6 ± 0.8 nM
Bmax (human 5-HT7 receptor [3]; Zn2+ 10 μM): 76.4 ± 12.1 pM/mg
Bmax (human 5-HT7 receptor [3]; Zn2+ 100 μM): 72.2 ± 9.4 pM/mg
Bmax (human 5-HT7 receptor [3]; Zn2+ 200 μM): 116.7 ± 24.8 pM/mg
Bmax (human 5-HT7 receptor [3]; Zn2+ 500 μM): 105.6 ± 13.9 pM/mg
Bmax (receptors labeled) (human 5-HT7 receptor [3]; absence of zinc): 91.2 pmol/mg of protein

Read-outs that look alike come from different tables or passages of the source.
